From patent publication US6039950A, “Pharmaceutical grade saw palmetto” (priority 1997, dated 2000) come the findings set out here.

The target in this assay is T1, 5-lipoxygenase (Rattus norvegicus, UniProt P12527).
T1 sequence (P12527 1-673): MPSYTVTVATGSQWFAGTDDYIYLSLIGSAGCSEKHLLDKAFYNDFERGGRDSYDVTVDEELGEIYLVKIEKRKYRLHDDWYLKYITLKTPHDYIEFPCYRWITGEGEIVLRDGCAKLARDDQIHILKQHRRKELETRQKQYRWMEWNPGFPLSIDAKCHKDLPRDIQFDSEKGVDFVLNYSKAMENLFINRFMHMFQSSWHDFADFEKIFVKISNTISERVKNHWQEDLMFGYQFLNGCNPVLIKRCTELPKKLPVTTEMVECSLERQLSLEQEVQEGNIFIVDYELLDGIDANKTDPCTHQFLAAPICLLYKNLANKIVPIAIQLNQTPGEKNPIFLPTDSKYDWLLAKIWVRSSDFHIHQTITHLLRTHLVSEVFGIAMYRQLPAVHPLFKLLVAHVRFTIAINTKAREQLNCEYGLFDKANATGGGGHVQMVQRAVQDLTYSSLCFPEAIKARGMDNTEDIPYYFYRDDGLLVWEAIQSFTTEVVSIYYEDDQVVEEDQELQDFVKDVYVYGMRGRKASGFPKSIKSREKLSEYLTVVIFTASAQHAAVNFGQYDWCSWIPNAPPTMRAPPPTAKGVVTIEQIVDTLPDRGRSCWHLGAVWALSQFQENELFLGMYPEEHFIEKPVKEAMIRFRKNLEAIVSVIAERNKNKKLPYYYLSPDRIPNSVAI
Description: biochemical. The note with it: reference compound; read-out: IC50, reference compounds, 5-lipoxygenase.

As to `NC1=NN(c2cccc(C(F)(F)F)c2)CC1` [BW-755C, reference compound], the IC50 (as a rule, the concentration at which inhibition is half-maximal) was found to be 6.6 µM.
